Key:
[1] = biological target: Aldo-keto reductase family 1 member B1 (Homo sapiens, UniProt P15121); assay: Inhibition of aldose reductase (unknown origin)
[2] = biological target: Tyrosine-protein phosphatase non-receptor type 1 (Homo sapiens, UniProt P18031); assay: Inhibition of GST-tagged PTP1B (unknown origin) by pNPP catalysis based colorimetric high throughput assay
[3] = biological target: Peroxisome proliferator-activated receptor gamma (Homo sapiens, UniProt P37231); assay: Agonist activity at PPARgamma (unknown origin)

Protein sequences, listed by entry. Tags and fused reporters are not part of them. Lines headed by an entry give the natural chain unless they say otherwise; changes in a name come on top.
UniProt P18031: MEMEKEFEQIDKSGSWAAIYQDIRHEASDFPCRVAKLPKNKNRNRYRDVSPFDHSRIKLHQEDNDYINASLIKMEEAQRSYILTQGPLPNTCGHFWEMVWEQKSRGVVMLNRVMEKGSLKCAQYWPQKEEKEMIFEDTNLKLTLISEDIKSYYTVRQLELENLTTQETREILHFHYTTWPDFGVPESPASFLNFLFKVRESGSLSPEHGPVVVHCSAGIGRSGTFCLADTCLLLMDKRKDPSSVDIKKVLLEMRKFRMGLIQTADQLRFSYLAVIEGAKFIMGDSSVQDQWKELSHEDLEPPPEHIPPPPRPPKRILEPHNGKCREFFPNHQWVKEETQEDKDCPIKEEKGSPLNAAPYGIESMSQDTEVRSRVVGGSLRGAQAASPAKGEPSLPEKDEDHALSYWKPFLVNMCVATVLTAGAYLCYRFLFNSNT
UniProt P37231: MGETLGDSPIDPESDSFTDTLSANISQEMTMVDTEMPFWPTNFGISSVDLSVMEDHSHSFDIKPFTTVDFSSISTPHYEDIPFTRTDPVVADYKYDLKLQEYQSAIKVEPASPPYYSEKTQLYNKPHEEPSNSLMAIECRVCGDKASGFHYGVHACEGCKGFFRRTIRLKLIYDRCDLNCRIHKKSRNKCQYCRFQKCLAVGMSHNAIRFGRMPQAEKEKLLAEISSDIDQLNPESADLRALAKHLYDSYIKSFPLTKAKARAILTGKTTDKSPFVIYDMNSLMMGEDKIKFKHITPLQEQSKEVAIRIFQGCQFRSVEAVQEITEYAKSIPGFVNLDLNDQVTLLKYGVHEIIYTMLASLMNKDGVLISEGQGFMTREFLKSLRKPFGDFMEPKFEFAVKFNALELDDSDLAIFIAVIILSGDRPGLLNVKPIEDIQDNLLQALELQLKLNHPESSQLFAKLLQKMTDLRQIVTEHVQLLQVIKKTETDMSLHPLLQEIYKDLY

Structure (SMILES) | IC50 [1] | also measured
O=C(O)CN1C(=O)S/C(=C\c2ccc(Oc3ccccc3)cc2)C1=O | 130 nM | 
O=C1NC(=O)/C(=C/c2ccc(Oc3ccccc3)cc2)S1 | 6140 nM | 
O=C1NC(=O)/C(=C/c2ccc(-c3ccc(OCc4ccccc4)cc3)cc2)S1 |  | IC50 [2]: 690 nM
C/C(=N/OCCOc1cccc(CC2SC(=O)NC2=O)c1)c1ccc(-c2ccccc2)cc1 (centres undefined) |  | IC50 [3]: 190 nM
